Test system: liver
Settings: ANIT study, relation to dose

## S=C=Nc1cccc2ccccc12 [ANIT, alpha-naphtylisothiocyanate]
  biomarker levels (ALAT, lipocalin-2, GST-mu in plasma; lipocalin-2 in urine), fold changes versus controls: correlate well with the dose

From patent US8609812B2, “Use of β-2-microglobulin to assess glomerular alterations and damage in the kidney” (Novartis AG, priority 2007, dated 2013)
